Assay results: patent publication US8026368B2, “Hydrazide compounds and thrombopoietin receptor activators” (Nissan Chemical Industries, Ltd., priority 2005, dated 2011)

Chains of the proteins cited; added tags and fusions are not shown. Residues count along the entry.
UniProt P40238, 26-635 limits assumed: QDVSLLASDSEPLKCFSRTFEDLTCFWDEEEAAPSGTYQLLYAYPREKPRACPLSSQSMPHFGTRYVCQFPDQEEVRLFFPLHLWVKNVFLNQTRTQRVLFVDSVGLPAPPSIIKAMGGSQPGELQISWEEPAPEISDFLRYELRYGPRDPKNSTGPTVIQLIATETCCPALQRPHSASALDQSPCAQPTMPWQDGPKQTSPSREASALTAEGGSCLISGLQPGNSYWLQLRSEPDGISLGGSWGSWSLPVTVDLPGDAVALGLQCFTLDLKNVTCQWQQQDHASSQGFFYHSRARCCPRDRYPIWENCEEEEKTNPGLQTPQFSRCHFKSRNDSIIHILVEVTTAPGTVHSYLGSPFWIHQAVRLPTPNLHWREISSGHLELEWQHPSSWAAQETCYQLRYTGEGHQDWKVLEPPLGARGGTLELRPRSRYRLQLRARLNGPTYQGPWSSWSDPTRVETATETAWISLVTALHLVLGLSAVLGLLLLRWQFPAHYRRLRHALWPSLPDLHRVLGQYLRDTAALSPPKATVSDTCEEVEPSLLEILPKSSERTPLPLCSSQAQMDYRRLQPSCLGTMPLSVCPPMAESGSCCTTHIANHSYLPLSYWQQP

Target: human thrombopoietin receptor (c-mpl) (Homo sapiens, UniProt P40238)
Test: Stimulation of proliferation of thrombopoietin-dependent cell line UT7/EPO-mpl (WST-8)
Conditions: human leukemic cell line UT-7/EPO-mpl, 4 days incubation, WST-8, relative to 10 ng/mL TPO
Description: The responses of thrombopoietin receptor to the compounds of the present invention prepared in the Synthetic Examples were assayed using a human leukemic cell line, UT7/EPO-mpl.
UT7/EPO-mpl is a stable transformed cell line obtained by introducing into human leukemic cell line UT7/EPO a vector that induces expression of human thrombopoietin receptor (c-mpl) under control of cytomegalovirus immediate-early promoter by the method of Takatoku et al. (J. Biol. Chem., 272:7259-7263 (1997)). […] These two cell lines were subcultured in IMDM (GIBCO) containing 10% fetal bovine serum (Thermo Electron or BioWest) using a CO2 incubator (5% CO2, 37° C.).
The subcultured cells described above were washed twice with PBS and suspended in IMDM containing 10% fetal bovine serum at a cell density of 6×10^4 cells/ml. The cell suspension was transferred to a 96-well tissue culture plate (CORNING) in 100-μl aliquots. Then either thrombopoietin (Pepro Tech EC) or the compounds of the Synthetic Examples dissolved in dimethyl sulfoxide were diluted 83-fold with IMDM containing 10% fetal bovine serum and added to the aforementioned cell suspension in 20-μl aliquots. The cell suspension was incubated in a CO2 incubator (5% CO2, 37° C.) for 4 days. […] The formazan pigment generated was detected by measuring the absorbance at 450 nm with a 96-well microplate reader (Nihon Molecular Devices, Spectramax 190). […]

EC50 (concentration that yields a growth rate corresponding to 50% of the growth observed in the presence of 10 ng/mL TPO) [ng/mL] | SMILES
0.26 | CC1=NN(c2ccc(C(F)(F)F)cc2)C(=O)/C1=C(/C)NNC(=O)c1ccc(C(=O)NCc2cccnc2)s1
2.3 | CC1=NN(c2ccc(C)c(C)c2)C(=O)C1=C(C)NNC(=O)c1ccc(C(=O)NC(C)C)s1
